Test system: GPI-PLC of hcDIGs from rat adipocytes
Assay: adipocyte GPI-PLC assay (cleavage of AChE, TX-114 partitioning)
Type: biochemical
Procedure: GPI-PLD (rat serum) was assayed according to "Hari et al. (1997) Biochim. Biophys. Acta 1355: 293-302" by incubation with 10 µl of human placental aP solution (100 U/ml in 10 mM Hepes/NaOH, pH 7.0, 150 mM NaCl) in 100 µl of 200 mM Tris/maleate (pH 7.0) and 1 % Nonidet P-40 for 10 min at 37°C and subsequent termination of the reaction by addition of 0.4 ml of ice-cold stop buffer (10 mM Hepes/NaOH, pH 7.0, 150 mM NaCl, 0.1 mM MgCl2 and 0.01 mM zinc acetate). GPI-PLC (T. brucei) was assayed as described in "Mensa-Wilmot et al. (1995) Methods Enzymol. […]
Pelleted hc/IcDIGs (10-50 µg protein) or (G)PI-PLC reaction mixtures (0.5 ml) were separated into amphiphilic and hydrophilic proteins using partitioning between TX-114-enriched and depleted phases according to "Bordier, C., (1981) J. Biol, Chem. 272: 2542-2550" by suspending in 1 ml of ice-cold TX-114 (1 %), 25 mM Tris/HCl (pH 7.4), 144 mM NaCl or mixing with 0.5 ml of ice-cold TX-114 (2 %), respectively. […] After re-extraction of the lower TX-114-enriched phase, aliquots of the pooled upper TX-114-depleted phase were measured for 5'-Nuc, aP and AChE activity or precipitated (15 % polyethylene glycol 4000) for SDS-PAGE analysis. […]
Fig. 2: Potency of GPI-2350. […] The lipolytic activity was calculated as % of the control reaction in the absence of GPI-2350 (set at 100 %). […]

CCCCCCCCCCCCP(=O)(O)O[C@H]1[C@H](O)[C@@H](O)[C@H](O)[C@@H](O)[C@@H]1F [GPI-1793, 2-deoxy-2-fluoro-scyllo-inositol-1-O-dodecyl-phosphonic acid] was tested, and the “inhibition % at 1 mM” value was 42 ± 5%.
